For two compounds, λem, ε and Φf results are on record in patent US20250115628A1, “FLUORINATED FLUOROPHORES” (HOWARD HUGHES MEDICAL INSTITUTE, priority 2023, published 2025).

Like-named read-outs stand apart in the source and are kept apart here.

Data set [1] is described as follows: General UV-vis and fluorescence spectroscopy. In kind it is physicochemical. The settings on record: rhodamine derivatives; 10 mM HEPES, pH 7.3. The procedure: Spectroscopy was performed using 1^−cm path length, 3.5^−mL quartz cuvettes or 1^−cm path length, 1.4^−mL semi-micro quartz cuvettes from Starna Cells. All measurements were taken at ambient temperature (22±2° C.). Absorption spectra were recorded on a Cary Model 100 spectrometer (Agilent), and fluorescence spectra were recorded on a Cary Eclipse fluorometer (Varian). The spectra, maximum absorption wavelength (labs), extinction coefficient at λabs (8), and maximum emission wavelength (em) were measured in 10 mM HEPES, pH 7.3 buffer (rhodamines and Malachite Green derivative 49) or 0.1 M NaOH (fluoresceins); the reported values for e are averages (n=3). Normalized spectra are shown for clarity.

For data set [2] the following is noted: rhodamine derivatives; 10 mM HEPES, pH 7.3; data from the inventors' published work; cited from earlier work.
For data set [3] the following is noted: rhodamine derivatives; 10 mM HEPES, pH 7.3; data from the inventors' published work; cited from earlier work. This is another data set of the same source.

`[2H]C1([2H])N(c2ccc3c(c2)C(C)(C)C2=CC(=[N+]4C([2H])([2H])C([2H])([2H])C([2H])([2H])C4([2H])[2H])C=CC2=C3c2c(F)c(F)c(F)c(F)c2C(=O)[O-])C([2H])([2H])C([2H])([2H])C1([2H])[2H]` [compound 40, JFX637] had a λem in data set [1] of 654 nm.

In the case of Si-Q-rhodamine [compound 95], in data set [2], the ε is given as 77,000 M^−1cm^−1 and the λem was 654 nm. Also, in data set [3], the Φf was 0.38.
